Test: Clearance in human after iv administration
Type: ADME, organism-based
Conditions: in vivo

clearance: 0.021 L/h/kg
SMILES: O=C(c1ccccc1)c1ccc2n1CCC2C(=O)O (stereo unspecified) [KETOROLAC]

Source: ChEMBL document CHEMBL1614629, “Extrapolation of human pharmacokinetic parameters from rat, dog, and monkey data: Molecular properties associated with extrapolative success or failure” (J Pharm Sci, 2005)
